The target in experiment [1] is T1, γ-secretase (Homo sapiens, UniProt P49768). The experiment in a line: Screening for γ-secretase-modulating activity: Aßtotal in supernatant of SKNBE2 cells carrying hAPP 695 wild type (Alphalisa), IC50. (In general: In Alpha technology, singlet oxygen from a donor bead excites a nearby acceptor bead.)
Experiment [2] deals with T1, γ-secretase. The experiment in a line: Screening for γ-secretase-modulating activity: Aß42 in supernatant of SKNBE2 cells carrying hAPP 695 wild type (Alphalisa), IC50.

From patent publication US10562897B2, “Substituted 3,4-dihydro-2H-pyrido[1,2-a]pyrazine-1,6-diones as gamma secretase modulators” (Janssen Pharmaceutica NV, priority 2014, dated 2020) come the findings set out here.

One may read the pIC50 as −log10 of the IC50, conventionally taken in molar units.

SMILES strings stand for the structures. pIC50: −log10 of the molar value.

On to `Cc1cn(-c2ccc3n(c2=O)CCN(CC2(C)COc4ccc(Cl)cc42)C3=O)cn1` (stereo not shown), for which the pIC50 is below 5.00 on γ-secretase [1] (read-out: IC50 Aβtotal, overnight incubation, cell supernatant) and 6.23 at γ-secretase [2] (read-out: IC50 Aβ42, overnight incubation, cell supernatant).

As for `Cc1cn(-c2ccc3n(c2=O)C[C@@H](C)N(Cc2cccc4c2OC(C)(C)C4)C3=O)cn1`, the pIC50 on γ-secretase [1] (read-out: IC50 Aβtotal, overnight incubation, cell supernatant, tested form: HCl) is below 5.00; at γ-secretase [2] (read-out: IC50 Aβ42, overnight incubation, cell supernatant, tested form: HCl), 6.23.
